Results taken from patent publication US10137210B2, “Thioflavin derivatives for use in antemortem diagnosis of Alzheimer's disease and in vivo imaging and prevention of amyloid deposition” (UNIVERSITY OF PITTSBURGH—OF THE COMMONWEALTH SYSTEM OF …, priority 2000, dated 2018).

What was measured:
[1] = In vivo brain uptake and retention in mice; conditions: for 2:30 min ratio / 2 min (% ID/g) / 30 min (% ID/g): Table 1 lower part; for 2 min (% ID/g): brain uptake at 2 min; for 30 min (% ID/g): brain uptake at 30 min
[2] = Partitioning between octanol and phosphate-buffered saline (logP); conditions: Table 1, upper part; value marked (est.)

| Compound | Mouse Brain Uptake @ 2 min ([1]; 2 min, 11C-labeled compound) [% ID/g * kg] | Mouse Brain Uptake @ 30 min ([1]; 30 min, 11C-labeled compound) [% ID/g * kg] | Ratio of 2 min/30 min Uptake Values ([1]; mouse brain) | logP (est.) [2] | 2:30 min ratio [1] | 2 min (% ID/g) [1] [% ID/g] | 30 min (% ID/g) [1] [% ID/g] |
| --- | --- | --- | --- | --- | --- | --- | --- |
| [11CH3]Oc1ccc2nc(-c3ccc(N)cc3)sc2c1 | 0.60 ± 0.04 | 0.39 ± 0.05 | 1.5 | 1.9 (est.) | – | – | – |
| [11CH3]Nc1ccc(-c2nc3ccccc3s2)cc1I | – | – | – | – | 1.6 | 4.40 | 2.68 |
| [11CH3]Nc1ccc(-c2nc3ccc(O)cc3s2)cc1I | – | – | – | – | 2.91 | 7.76 | 2.66 |
